Data from the Kinase Knowledgebase extract (Sharma et al. 2016).
Values joined by “and” are separate entries in the source; they are usually repeats but may differ in a detail not shown here. Equal entries are not always repeated.

Amino acid sequences for entries named in this document (tags omitted). A change or cut given only in a name is not applied to a line headed by its entry.
UniProt P42338: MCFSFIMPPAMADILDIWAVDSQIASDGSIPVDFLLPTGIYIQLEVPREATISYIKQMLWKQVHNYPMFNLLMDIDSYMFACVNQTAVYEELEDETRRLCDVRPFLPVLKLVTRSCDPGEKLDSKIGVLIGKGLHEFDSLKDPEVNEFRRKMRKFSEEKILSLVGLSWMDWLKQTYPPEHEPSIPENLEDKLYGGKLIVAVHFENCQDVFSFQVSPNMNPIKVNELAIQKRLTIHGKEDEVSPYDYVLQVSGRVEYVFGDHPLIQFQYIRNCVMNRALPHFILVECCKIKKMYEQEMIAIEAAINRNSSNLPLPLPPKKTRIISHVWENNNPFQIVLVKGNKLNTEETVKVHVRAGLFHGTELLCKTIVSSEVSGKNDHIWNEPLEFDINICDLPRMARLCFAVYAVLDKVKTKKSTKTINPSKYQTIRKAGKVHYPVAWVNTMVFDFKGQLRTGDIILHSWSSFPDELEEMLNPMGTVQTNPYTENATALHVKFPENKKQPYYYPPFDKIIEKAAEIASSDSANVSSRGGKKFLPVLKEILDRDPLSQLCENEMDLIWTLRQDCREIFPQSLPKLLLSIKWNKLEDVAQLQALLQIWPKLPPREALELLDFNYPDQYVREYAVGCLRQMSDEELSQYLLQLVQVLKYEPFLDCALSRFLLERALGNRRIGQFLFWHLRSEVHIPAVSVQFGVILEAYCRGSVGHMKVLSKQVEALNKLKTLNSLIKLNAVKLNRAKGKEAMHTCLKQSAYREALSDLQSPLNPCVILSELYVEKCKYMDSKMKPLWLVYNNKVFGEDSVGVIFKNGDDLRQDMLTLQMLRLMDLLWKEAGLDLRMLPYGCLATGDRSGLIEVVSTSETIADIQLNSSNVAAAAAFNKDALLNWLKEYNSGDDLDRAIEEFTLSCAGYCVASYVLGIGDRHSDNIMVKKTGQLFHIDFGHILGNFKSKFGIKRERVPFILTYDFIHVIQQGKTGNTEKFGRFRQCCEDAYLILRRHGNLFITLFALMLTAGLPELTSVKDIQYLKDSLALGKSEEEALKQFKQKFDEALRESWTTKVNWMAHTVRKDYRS
UniProt P42336, whole entry, looked up: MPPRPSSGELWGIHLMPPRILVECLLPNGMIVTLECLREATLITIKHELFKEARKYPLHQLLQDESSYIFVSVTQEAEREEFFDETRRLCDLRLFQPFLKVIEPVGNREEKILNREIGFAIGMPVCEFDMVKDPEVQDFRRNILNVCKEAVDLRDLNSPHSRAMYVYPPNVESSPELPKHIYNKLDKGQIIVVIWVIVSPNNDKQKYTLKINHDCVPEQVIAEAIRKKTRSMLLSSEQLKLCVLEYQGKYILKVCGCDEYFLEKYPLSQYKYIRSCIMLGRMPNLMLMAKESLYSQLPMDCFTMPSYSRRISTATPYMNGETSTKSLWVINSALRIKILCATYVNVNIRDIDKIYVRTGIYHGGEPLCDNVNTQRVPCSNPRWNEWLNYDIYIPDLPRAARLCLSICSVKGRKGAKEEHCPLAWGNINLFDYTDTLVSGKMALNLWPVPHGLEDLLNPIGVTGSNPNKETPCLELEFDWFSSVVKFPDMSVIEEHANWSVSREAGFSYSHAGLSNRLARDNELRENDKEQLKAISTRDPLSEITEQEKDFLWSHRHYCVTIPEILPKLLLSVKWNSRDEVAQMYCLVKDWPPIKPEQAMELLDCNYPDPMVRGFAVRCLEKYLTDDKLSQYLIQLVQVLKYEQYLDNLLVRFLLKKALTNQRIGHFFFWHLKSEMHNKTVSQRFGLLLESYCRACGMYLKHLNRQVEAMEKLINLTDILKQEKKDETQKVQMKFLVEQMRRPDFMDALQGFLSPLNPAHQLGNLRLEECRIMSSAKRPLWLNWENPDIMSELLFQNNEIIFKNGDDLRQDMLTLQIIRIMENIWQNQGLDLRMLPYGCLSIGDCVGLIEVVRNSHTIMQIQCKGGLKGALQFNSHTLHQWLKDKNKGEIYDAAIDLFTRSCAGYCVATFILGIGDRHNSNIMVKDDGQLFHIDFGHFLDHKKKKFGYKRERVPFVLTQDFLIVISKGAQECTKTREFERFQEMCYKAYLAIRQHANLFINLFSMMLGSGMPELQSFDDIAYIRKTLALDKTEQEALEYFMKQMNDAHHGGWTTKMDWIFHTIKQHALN

What was measured:
[1] = biological target: PIK3CB (UniProt P42338); test: Inhibition of PIK3CB Kinase Activity
[2] = biological target: PIK3CA (UniProt P42336); test: Inhibition of PIK3CA Kinase Activity; conditions: concentration not given here

Q: `O=c1cc(N2CCOCC2)oc2c(-c3ccccc3)cccc12` was tested. Which IC50 [1] did it give?
A: The IC50 was 3700 nM and 400 nM.

Q: With `Cc1ccccc1-n1c(Cn2cnc3c(N)ncnc32)nc2cccc(C)c2c1=O` as the molecule, how does the inhibition [2] read?
A: Its inhibition is 5%.
